Assay outcomes: PubChem BioAssay, Broad Institute
This is a sample that favours compounds with a hit; in the whole collection about 1% have one here.
Statin myotox sup: suppressors of statin myotoxicity in C2C12 myotubes, primary screen, cell-based, single point, plate reader; C2C12 myotubes + simvastatin, ATP luminescence, 48 h; scaled: DMSO 0, geranylgeraniol control 100; rescue of ATP level, % at 7.49 µM; actives 0.78% (n = 330,000);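 active = mean ATP rescue above about 67%, or every replicate alone reaching that limit, limit read from the data, passing the limit was not always enough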;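 note: myotubes were challenged with 10 µM simvastatin during compound exposure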
CDK5 inh: inhibitors of human CDK5/p35 kinase, primary screen, biochemical, single concentration; Recombinant CDK5/p35, ADP-Glo luminescence, 60 min; AID 488839, 2010; inhibition, % at 10 µM; actives 0.01% (n = 330,000); Cyclin-dependent kinase 5 (Homo sapiens) + Cyclin-dependent kinase 5 activator 1 (Homo …;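 active = highest replicate inhibition of at least 50% and at least 75% of replicates reaching 50%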
Yeast UUG start: alters start codon recognition fidelity in yeast; AID 602363; activity score, % at 18.7 µM; 350,000 tested, 0.13% active; S. cerevisiae UUG-firefly luciferase reporter, luminescence/redox ratio;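 active means replicate mean at a twofold rise or more, about +100% in these data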;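 further: firefly luciferase made from a UUG start codon reports start codon fidelity; reporter light over untreated wells divided by growth signal over untreated wells; some hits fall short of that in this replicate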
Cneo AK release: Cryptococcus neoformans cell lysis inducers, primary screen, AK release luminescence, single concentration; C. neoformans lysis, adenylate kinase release luminescence, 4 h; normalised: neutral wells 0, clomiphene wells 100; lysis activity, % at 15 µM; actives 0.2% (n = 360,000);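 active = mean lysis activity across replicates of at least 80%, whatever share of replicates individually reach that level; inactive = mean lysis activity below 80%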
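Schedule: static 4 h at 37 °C with compound, 1 h detection; system: C. neoformans cells; benchmarks: Clomiphene as positive control; buffer or medium: fresh YPD medium; measure: luminescence rise reflecting yeast cell lysis; measured by: luminescent adenylate kinase detection reagent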
Rtt109 HAT inh: inhibitors of C. albicans Rtt109/Vps75 HAT, primary screen, biochemical, ThioGlo CoA-SH fluorescence, plate reader | Histone acetyltransferase RTT109 (Candida albicans (strain SC5314 / ATCC MYA-2876)), … | purified Rtt109/Vps75, 4 h | inhibition, % at 34.9 µM | actives 0.16% (n = 330,000) | AID 540336, 2011;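 active = inhibition of at least 50% in every replicate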
Numbers stand for hits; . = inactive; / = no result; + = active, no number.

SMILES | Statin myotox sup | CDK5 inh | Yeast UUG start | Cneo AK release | Rtt109 HAT inh
CCOc1cccc(N2C(=O)CC(NCc3ccc(S(N)(=O)=O)cc3)C2=O)c1 (configuration not stated) | 78 | . | . | . | .
CCCCCCOc1ccc(N2C(=O)CC(NCc3ccc(S(N)(=O)=O)cc3)C2=O)cc1 (configuration not stated) | / | . | . | . | .
CCC12CC3CC(C1)CC(C(=O)NNC(N)=O)(C3)C2 | 106 | . | . | . | .
CCCC(=O)Nc1ccc2c(c1)C(=O)N(C)[C@H]1CC[C@H](CC(=O)NCC3CCCCC3)O[C@@H]1CO2 | . | / | . | . | /
CCOC(=O)C1=NN(C(=O)Nc2ccc(OC)cc2)C2C(=O)N(c3cccc(C(F)(F)F)c3)C(=O)C12 (configuration not stated) | 102 | . | . | . | .
CCOC(=O)C1=NN(c2ccc(OC)cc2)C2C(=O)N(c3ccccc3OC)C(=O)C12 (configuration not stated) | / | . | / | / | .
CCCCn1cnc2c(SCCc3ccccc3)nc(N)nc21 | 99 | . | . | . | .
Cc1oc(C(=O)O)cc1COc1cccc2cccnc12 | 124 | . | / | / | .
CC(=O)N(C)c1ccc(NC(=O)Cc2cccc3ccccc23)cc1 | 123 | . | . | . | .
O=C(Cc1cccc2ccccc12)Nc1cc(C(=O)O)cc(C(=O)O)c1 | . | . | . | . | .
CN(C)CC(=O)N[C@H]1CC[C@H](CC(=O)NCc2ccccc2F)O[C@@H]1CO | . | / | . | . | /
CN(C)C(=O)CSc1nc(-c2ccccc2)nc2c1CCCC2 | 77 | . | . | . | .
NC(=O)CSc1nc(-c2ccccc2)nc2c1CCCC2 | / | . | / | / | .
CNC[C@@H]1OCCCC[C@@H](C)Oc2ccc(NS(=O)(=O)c3ccccc3)cc2C(=O)N([C@H](C)CO)C[C@@H]1C | . | / | . | . | /
C[C@H](CO)N1C[C@H](C)[C@@H](CN(C)C(=O)Nc2cccc3ccccc23)Oc2ccc(NC(=O)CCC(F)(F)F)cc2CC1=O | . | / | . | . | /
O=S(=O)(Nc1cc(Sc2ncn[nH]2)c(O)c2ccccc12)c1ccccc1 | / | . | / | / | +
Cc1ccc(OCCn2c(=S)[nH]c3ccccc32)c(C(C)C)c1 | . | . | . | 97 | .
C=CCN(c1ccccc1OC)S(=O)(=O)c1cccc(C(=O)OC2CCOC2=O)c1 (configuration not stated) | 114 | . | . | . | .
CCN(CC)S(=O)(=O)c1cccc(C(=O)OC2CCOC2=O)c1 (configuration not stated) | . | . | . | . | .
COc1ccc(OC)c(-c2cc(C(=O)NCCCn3ccnc3)no2)c1 | 161 | . | / | / | .
O=C(C[C@@H]1CC[C@@H]2[C@H](COC[C@H](O)CN2C(=O)c2cc(Cl)cc(Cl)c2)O1)N1CCc2ccccc2C1 | 91 | / | / | . | /
O=C(C[C@H]1CC[C@H]2[C@@H](COC[C@@H](O)CN2C(=O)c2cc(Cl)cc(Cl)c2)O1)N1CCc2ccccc2C1 | 81 | / | / | . | /
O=C(C[C@H]1CC[C@H]2[C@@H](COC[C@@H](O)CN2C(=O)c2ccc(F)cc2)O1)N1CCOCC1 | . | / | . | 105 | /
O=C(C[C@H]1CC[C@@H]2[C@H](COC[C@H](O)CN2C(=O)c2cc(Cl)cc(Cl)c2)O1)N1CCc2ccccc2C1 | . | / | . | . | /
C/C=C/c1ccc2c(c1)O[C@@H](CN(C)C(=O)Cc1ccccc1)[C@H](C)CN([C@H](C)CO)S2(=O)=O | . | / | . | . | /
SMILES | Statin myotox sup | CDK5 inh | Yeast UUG start | Cneo AK release | Rtt109 HAT inh
Cc1ccc(S(=O)(=O)N(C)C[C@H]2Oc3ccc(NC(=O)Cn4cnnn4)cc3CC(=O)N([C@H](C)CO)C[C@H]2C)cc1 | . | / | . | . | /
O=C(C#Cc1ccccc1)Nc1cccc(F)c1 | 159 | . | . | . | .
O=C(COc1ncnc2ccccc12)c1ccc2c(c1)OCCO2 | 72 | . | / | / | .
C[C@@H]1CCCCO[C@@H](CN(C)S(=O)(=O)c2ccc(Cl)cc2)[C@H](C)CN([C@H](C)CO)C(=O)c2cc(NC(=O)Nc3ccccc3)ccc2O1 | / | / | . | . | /
CO[C@H]1CN(C)C(=O)c2ccc(NC(=O)c3ccc(F)cc3)cc2OC[C@@H](C)N(C(=O)CN(C)C)C[C@H]1C | . | / | / | / | /
N#C/C(=C1/CCCCCN1)c1nc2ccccc2[nH]1 | . | . | . | . | .
N#C/C(=C1\CCCN1)c1ccc2ccccc2n1 | 77 | . | . | . | .
CC(=O)C1=C(C)Nc2ncnn2C1c1ccccc1OCc1ccccc1 (configuration not stated) | 114 | . | . | . | .
CCOC(=O)C1=C(C)Nc2ncnn2C1c1ccccc1F (configuration not stated) | 81 | . | . | . | .
COc1ccccc1C1C(C(=O)NCc2ccccc2)=C(C)Nc2ncnn21 (configuration not stated) | / | . | / | / | .
CCOC(=O)C1=C(C)Nc2ncnn2C1c1c[nH]c2ccccc12 (configuration not stated) | . | . | . | . | .
CN1CCN(C(=O)C[C@@H]2C=C[C@@H](NC(=O)c3ccc4c(c3)OCO4)[C@@H](CO)O2)CC1 | . | / | . | . | /
C/C=C/c1cnc2c(c1)C(=O)N([C@@H](C)CO)C[C@@H](C)[C@@H](CN(C)Cc1cccc(C(=O)O)c1)O2 | . | / | / | / | /
C#CCOCCOCCOCCNc1nc(N2CCOCC2)nc(N2CCN(C(=O)CCCCCCCCCCNC(=O)[C@@H]([C@H](C)O)n3cc(C)nn3)CC2)n1 | . | . | . | . | .
C#CCOCCOCCOCCNc1nc(N2CCN(C(=O)C([C@@H](C)O)n3cc([C@@H](N)CCCCN)nn3)CC2)nc(N2CCN(C(=O)C([C@@H](C)O)n3cc([C@@H](N)CCCCN)nn3)CC2)n1 (some centres not stated) | . | . | . | . | 73
C#CCOCCOCCOCCNc1nc(N2CCN(C(=O)CCCCCCCCCCNC(=O)[C@@H]([C@H](C)O)n3cc(C)nn3)CC2)nc(N2CCN(C(=O)CCCCCCCCCCNC(=O)[C@@H]([C@H](C)O)n3cc(C)nn3)CC2)n1 | 77 | . | . | . | .
C#CCOCCOCCOCCNc1nc(N2CCN(C(=O)C([C@@H](C)O)n3cc([C@@H](N)CCCCN)nn3)CC2)nc(N2CCN(C(=O)[C@H](CO)n3cc([C@@H](N)C(C)C)nn3)CC2)n1 (some centres not stated) | . | . | . | . | .
Cc1ccc(-c2oc3ccccc3c(=O)c2OCC(=O)O)cc1 | . | . | . | . | .
